Reference: patent US20240124464A1, “SUBSTITUTED FUSED BICYCLIC COMPOUND AS KINASE INHIBITOR AND USE THEREOF” (IMPACT THERAPEUTICS (SHANGHAI), INC, priority 2020, published 2024)

Protein sequences, listed by entry. Tags and fused reporters are not part of them.
UniProt O60285, whole entry: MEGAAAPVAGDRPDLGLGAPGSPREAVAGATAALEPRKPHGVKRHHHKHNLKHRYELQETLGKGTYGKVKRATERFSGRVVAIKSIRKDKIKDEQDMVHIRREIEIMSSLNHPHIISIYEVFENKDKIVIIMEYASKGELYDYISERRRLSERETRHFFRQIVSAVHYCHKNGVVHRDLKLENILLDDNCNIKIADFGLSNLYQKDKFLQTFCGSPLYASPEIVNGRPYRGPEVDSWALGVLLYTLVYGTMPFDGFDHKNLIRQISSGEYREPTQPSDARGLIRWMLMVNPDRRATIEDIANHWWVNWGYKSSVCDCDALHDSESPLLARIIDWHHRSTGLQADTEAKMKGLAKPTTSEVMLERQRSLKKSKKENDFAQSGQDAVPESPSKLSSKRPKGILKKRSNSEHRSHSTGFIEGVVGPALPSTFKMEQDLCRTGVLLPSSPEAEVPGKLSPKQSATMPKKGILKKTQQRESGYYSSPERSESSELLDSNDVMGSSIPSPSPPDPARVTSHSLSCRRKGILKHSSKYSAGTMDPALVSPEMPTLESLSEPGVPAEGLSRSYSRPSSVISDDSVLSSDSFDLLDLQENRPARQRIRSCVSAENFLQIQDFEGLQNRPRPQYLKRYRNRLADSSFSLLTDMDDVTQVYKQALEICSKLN
UniProt Q9H093, whole entry: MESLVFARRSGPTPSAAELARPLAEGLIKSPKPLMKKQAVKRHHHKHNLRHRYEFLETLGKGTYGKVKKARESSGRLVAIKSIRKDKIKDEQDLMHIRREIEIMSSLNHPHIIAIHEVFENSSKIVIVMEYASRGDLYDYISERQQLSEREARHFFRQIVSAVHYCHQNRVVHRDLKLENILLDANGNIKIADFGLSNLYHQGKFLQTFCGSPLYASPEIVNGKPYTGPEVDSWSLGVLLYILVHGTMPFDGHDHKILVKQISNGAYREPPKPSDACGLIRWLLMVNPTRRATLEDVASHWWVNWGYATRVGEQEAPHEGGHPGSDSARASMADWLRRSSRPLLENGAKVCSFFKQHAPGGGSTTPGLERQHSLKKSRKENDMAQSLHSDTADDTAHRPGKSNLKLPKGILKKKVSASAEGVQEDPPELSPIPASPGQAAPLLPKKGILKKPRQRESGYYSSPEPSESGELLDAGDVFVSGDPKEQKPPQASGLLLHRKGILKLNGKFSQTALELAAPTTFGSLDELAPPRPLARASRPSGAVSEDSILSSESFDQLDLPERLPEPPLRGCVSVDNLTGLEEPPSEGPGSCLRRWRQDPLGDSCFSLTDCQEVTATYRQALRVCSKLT

How the values were obtained:
NUAK1(h) enzyme = NUAK1(h) enzyme (Homo sapiens, UniProt O60285); assay: In vitro NUAK1 enzymatic assay (Eurofins Discovery, [γ-33P]-ATP filter assay); format: biochemical; conditions: read-out: IC50, inhibitory effect on NUAK1 enzyme activity; 45 μM ATP, 40 min, room temperature
Description: In Vitro Assay to Determine the Inhibitory Effect of Compounds in the Patent on NUAK1 Enzymatic Activity
The in vitro NUAK1 enzymatic assay was carried out at Eurofins Discovery to evaluate the inhibitory effect of the compounds presented in the invention. The assay protocol is as follow: the compound to be tested was mixed with NUAK1(h) enzyme and 300 μM […] substrate in 8 mM MOPS (pH 7.0) buffer containing 0.2 mM EDTA and incubated at room temperature. A Mg/ATP mixture containing 10 mM magnesium acetate and 45 μM [y-33P]-ATP was added to start the reaction. After incubation for 40 min at room temperature, the reaction was terminated by adding 0.5% phosphoric acid. Then, 10 μL of the reaction mix was spotted onto a P30 filter paper followed with four times of wash with 0.425% phosphoric acid solution (4 min each time), and one time wash with methanol. The filter paper was air-dried and counted in a liquid scintillation counter. The values obtained were plotted against the drug concentration and the IC50 was calculated.
Table 1 summarizes the inhibitory effect (IC50) of compounds tested on the NUAK1 enzyme activity in the present invention. ++++ indicates IC50≤10 nM; […]; ++ indicates 100 nM<IC50≤1 μM; + indicates IC50>1 μM.

NUAK2(h) enzyme = NUAK2(h) enzyme (Homo sapiens, UniProt Q9H093); assay: In vitro NUAK2 enzymatic assay (Eurofins Discovery, [γ-33P]-ATP filter assay); format: biochemical; conditions: read-out: IC50, inhibitory effect on NUAK2 enzyme activity; 45 μM ATP, 40 min, room temperature
Description: In Vitro Assay to Determine the Inhibitory Effect of Compounds in the Patent on NUAK2 Enzymatic Activity
The in vitro NUAK2 enzymatic assay was carried out at Eurofins Discovery to evaluate the inhibitory effect of the compounds presented in the invention. The assay protocol is as follow: the compound to be tested was mixed with NUAK2(h) enzyme and 300 […] substrate in 8 mM MOPS (pH 7.0) buffer containing 0.2 mM EDTA. A Mg/ATP mixture containing 10 mM magnesium acetate and 45 μM [γ-33P]-ATP was added to start the reaction. After incubation for 40 min at room temperature, the reaction was terminated by adding 0.5% phosphoric acid. Then 10 μL of the reaction mix was spotted onto a P30 filter paper. The filter paper was washed four times with 0.425% phosphoric acid with 4 min for each wash, and one time with methanol. The filter paper was air-dried and counted in a liquid scintillation counter. The values obtained were plotted against the drug concentration and the IC50 was calculated.
Table 1 summarizes the inhibitory effect (IC50) of compounds on the NUAK2 enzyme activity in the present invention. ++++ indicates IC50≤10 nM; +++ indicates 10 nM<IC50≤100 nM; ++ indicates 100 nM<IC50≤1 μM; + indicates IC50>1 μM.

COc1cc(N2CCN(C)CC2)ccc1Nc1ncc2ncc(=O)n(C3CCCC3)c2n1
IC50 (NUAK1(h) enzyme): > 1000 nM
IC50 (NUAK2(h) enzyme): 100 to 1000 nM
